DYRK1A inh: rat Dyrk1A kinase inhibitors, primary screen, biochemical, single point, plate reader; Dual specificity tyrosine-phosphorylation-regulated kinase 1A (Rattus norvegicus), Q63470; ADP-Glo luminescence, NFATc1 peptide; inhibition, % at 12.5 µM; actives 0.43% (n = 310,000); in the data active = inhibition above about 50%
dFosB act-1: activators of delta FosB homodimer, primary screen, biochemical, fluorescence polarization, TAMRA-CDK5 oligo, single point; Protein FosB (Mus musculus), P13346; purified delta FosB; percent of positive-control signal above neutral wells; activation, % at 25 µM; actives 0.99% (n = 340,000);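 active = mean activation above about 17%, with every replicate also reaching it, limit read from the data, passing the limit was not always enough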
CAL PDZ FP-1: untagged CAL PDZ binding inhibitors, primary screen, biochemical, fluorescence polarization, HTS. inhibition, % at 24.9 µM. actives 0.92% (n = 300,000). purified CAL PDZ, TMR-peptide fluorescence polarization, 1 h. AID 602252, 2012. Golgi-associated PDZ and coiled-coil motif-containing protein (Homo sapiens), Q9HD26;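 active = mean inhibition of at least 30% with at least half of replicates also reaching 30%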
CDK5 p35 inh: inhibitors of human CDK5/p35 kinase, primary screen, biochemical, single concentration. Recombinant CDK5/p35, ADP-Glo luminescence, 60 min. inhibition, % at 10 µM. actives 0.01% (n = 330,000). AID 488839, 2010;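 active = highest replicate inhibition of at least 50% and at least 75% of replicates reaching 50%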
CAL PDZ FP-2: CAL PDZ peptide-binding inhibitors, primary screen, biochemical, fluorescence polarization, Cer-tagged CAL PDZ, HTS | Golgi-associated PDZ and coiled-coil motif-containing protein (Homo sapiens), Q9HD26 | purified CAL PDZ, TMR-peptide fluorescence polarization, 1 h | inhibition, % at 20 µM | actives 0.02% (n = 330,000) | AID 504414, 2011;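 active = highest replicate inhibition of at least 40%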
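Test system: tagged CAL PDZ domain / Buffer or medium: sodium phosphate/NaCl buffer pH 7.4 with TCEP, IgG, Thesit / Reagent: TMR-labelled reporter peptide T*-PRC34 bound in PDZ groove / Compound dosing: single point, 20 µM / Schedule: 1 h incubation at room temperature before polarization reading / Technique: fluorescence polarization (mP) / Benchmarks: unlabelled peptide, DMSO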
Yeast UUG start: modulators of start codon recognition fidelity in yeast; AID 602363; activity score, % at 18.7 µM; S. cerevisiae UUG-firefly luciferase reporter, luminescence/redox ratio; 0.13% of 350,000 active;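 active = replicate mean at a twofold rise or more, about +100% in these data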;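 note: firefly luciferase made from a UUG start codon reports start codon fidelity; reporter light over untreated wells divided by growth signal over untreated wells; some hits fall short of that in this replicate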
dFosB act-2: activators of mouse delta FosB DNA binding, confirmation, biochemical, fluorescence polarization, TAMRA-CDK5 oligo, cherry-picked samples; 2,400 tested, under 10 active; activation, % at 24.9 µM; shares compounds with dFosB act-1; purified delta FosB; normalised: neutral wells 0, positive control 100;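 active = highest replicate activation at or above 34% and every replicate reaching that threshold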;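 note: higher polarization means more probe DNA bound by delta FosB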
A number is an active result; . = inactive; / = not tested or not shown. An excerpt weighted towards active compounds, which were near 1.7% of everything screened.

SMILES	DYRK1A inh	dFosB act-1	CAL PDZ FP-1	CDK5 p35 inh	CAL PDZ FP-2	Yeast UUG start	dFosB act-2
COc1ccc(-n2nc(C(=O)NCC(=O)Nc3cc(OC)c(OC)c(OC)c3)c3ccccc3c2=O)cc1OC	.	24	.	.	.	.	.
COc1ccc(-n2nc(C(=O)NCC(=O)NCc3cccc(F)c3)c3ccccc3c2=O)cc1Cl	.	26	.	.	.	.	.
COc1ccc(-n2nc(C(=O)NCC(=O)Nc3cc(OC)c(OC)c(OC)c3)c3ccccc3c2=O)cc1	.	.	.	.	.	.	/
COC(=O)CNC(=O)CNC(=O)c1nn(-c2ccc(OC)c(Cl)c2)c(=O)c2ccccc12	.	.	.	.	.	.	/
CN1c2ccc(-c3cccc(C#N)c3)cc2[C@H]2[C@H](CCN2C(=O)C2CCC2)[C@H]1CO	/	/	/	/	/	.	/
C[C@H]1CN([C@@H](C)CO)C(=O)c2cc(C3=CCCCC3)cnc2O[C@H]1CN(C)C(=O)c1ccncc1	/	/	/	/	/	.	/
O=C(NCC[C@@H]1CC[C@H](NC(=O)C2CCCCC2)[C@@H](CO)O1)c1cc(Cl)cc(Cl)c1	/	/	/	/	/	.	/
Cc1c(NC(=O)c2cc(-n3cnnc3)ccc2Cl)cccc1-c1nc2ccccc2s1	.	31	.	.	.	.	.
O=C(Nc1cccc(-c2nc3ccccc3s2)c1)c1cc(-n2cnnc2)ccc1Cl	/	.	.	.	.	.	/
C/C(=N\Nc1nc2ccccc2[nH]1)c1ccc2c(c1)OCCO2	.	.	.	.	.	/	/
C/C(=N\Nc1nc2ccccc2[nH]1)c1ccc2c(c1)OCO2	.	27	.	.	.	.	.
C[C@H](CO)N1C[C@H](C)[C@@H](CN(C)Cc2ccncc2)Oc2ncc(C#CC3CCCC3)cc2C1=O	/	/	/	/	/	.	/
COc1cccc(Nc2nc(N)nc(-c3oc4ccccc4c3C)n2)c1	.	60	.	.	.	.	.
Cc1cccc(Nc2nc(N)nc(-c3oc4ccccc4c3C)n2)c1	.	78	.	.	.	.	.
COc1ccc(S(=O)(=O)N(C)C[C@H]2Oc3c(NC(=O)c4ccncc4)cccc3C(=O)N([C@@H](C)CO)C[C@H]2C)cc1	/	/	/	/	/	.	/
Cc1noc(C)c1NC(=O)N[C@H]1C=C[C@H](CC(=O)Nc2ccc(-c3ccccc3)cc2)O[C@H]1CO	/	/	/	/	/	.	/
COc1ccc(NC(=O)Nc2ccc3c(c2)C(=O)N([C@H](C)CO)C[C@@H](C)[C@H](CN(C)C(=O)C2CCCCC2)OCCCC[C@H](C)O3)cc1	/	/	/	/	/	.	/
CN(C[C@H]1[C@H](c2ccccc2)[C@@H](CO)N1CC1CC1)C(=O)c1ccccc1	/	/	/	/	/	.	/
CC(=O)Nc1cccc(NC(=O)Nc2cccc(Cl)c2C)c1	.	22	.	.	.	/	.
COc1ccc(C)cc1NC(=O)Nc1cccc(C)c1	.	.	.	.	.	/	/
CC(=O)Nc1cccc(NC(=S)Nc2cccc(Cl)c2C)c1	.	.	/	.	.	.	/
Cc1cccc(NC(=O)Nc2ccc(C)cc2Br)c1	.	20	.	.	.	.	.
COc1cccc(C(=O)Nc2nnc(-c3ccc(OC)cc3OC)s2)c1	.	39	.	.	.	.	.
COc1cc(C(=O)Nc2nnc(-c3sccc3C)s2)cc(OC)c1OC	.	17	.	.	.	.	.
CC(C)c1nnc(NC(=O)c2ccc3c(c2)OCO3)s1	.	.	/	.	.	/	/
SMILES	DYRK1A inh	dFosB act-1	CAL PDZ FP-1	CDK5 p35 inh	CAL PDZ FP-2	Yeast UUG start	dFosB act-2
COc1ccccc1-c1nnc(NC(=O)c2ccc3c(c2)OCO3)s1	.	59	.	.	.	/	.
COc1cccc(C(=O)Nc2nnc(-c3ccccc3)s2)c1	.	.	.	.	.	.	/
C[C@@H]1CN([C@@H](C)CO)C(=O)c2cc(NC(=O)Nc3cccc4ccccc34)ccc2O[C@@H](C)CCCCO[C@@H]1CN(C)C(=O)C1CCCCC1	/	/	/	/	/	.	/
O=C(C[C@@H]1CC[C@H](NC(=O)C2CC2)[C@@H](CO)O1)NCC1CC1	/	/	/	/	/	.	/
Cc1cn(-c2cc(NC(=O)c3ccc(C)c(NC(=O)c4cccc(-c5cn[nH]c(=O)c5)c4)c3)cc(C(F)(F)F)c2)cn1	.	41	.	.	.	.	.
Cc1ccc(NC(=O)c2cccc(C(F)(F)F)c2)cc1NC(=O)c1[nH]cnc1C(N)=O	.	.	.	.	.	.	/
C[C@@H]1CN([C@@H](C)CO)C(=O)Cc2cc(NC(=O)Cn3cnnn3)ccc2O[C@H]1CN(C)Cc1ccc(Cl)c(Cl)c1	/	/	/	/	/	.	/
CO[C@@H]1CN(C)C(=O)c2ccc(NS(=O)(=O)c3ccccc3)cc2OC[C@@H](C)N(C)C[C@@H]1C	/	/	/	/	/	.	/
O=C(Nc1nnc(Cc2ccc(F)cc2)s1)Nc1ccccc1F	.	27	.	.	.	.	.
O=C(Nc1nnc(-c2ccccc2F)s1)Nc1ccccc1F	.	.	.	.	.	/	/
O=C(Nc1nnc(-c2ccccc2SCc2ccccc2)s1)Nc1ccccc1F	.	91	.	/	.	.	.
COc1ccc(Cc2nnc(NC(=O)Nc3ccccc3F)s2)cc1	.	.	.	.	.	.	/
COc1ccc(-c2ccc([C@@H]3[C@@H](C#N)N(C(=O)NC4CCCC4)[C@H]3CO)cc2)cc1	/	/	/	/	/	.	/
Cc1ccc(S(=O)(=O)Nc2ccc3c(c2)C(=O)N([C@@H](C)CO)C[C@@H](C)[C@@H](CN(C)C(=O)Nc2cccc4ccccc24)OCCCC[C@@H](C)O3)cc1	/	/	/	/	/	.	/
CCCNC(=O)Nc1ccc2c(c1)C(=O)N(C)C[C@@H](OC)[C@H](C)CN(C(=O)C1CCC1)[C@@H](C)CO2	/	/	/	/	/	.	/
CC(=O)Nc1ccc2c(c1)C(=O)N(c1cccc(C)c1)C2=O	.	20	.	.	.	/	.
Cc1cccc(N2C(=O)c3ccc(C(=O)Nc4ccccn4)cc3C2=O)c1	.	62	.	.	.	.	.
CC(=O)Nc1cccc(C)c1	/	.	.	.	.	.	/
Cc1ccc(C)c(N2C(=O)c3ccc(C(=O)Nc4ccccn4)cc3C2=O)c1	/	/	/	/	/	.	/
O=C(Nc1ccccc1Cl)c1ccc2c(=O)n3c(nc2c1)CCC3	/	.	.	.	.	.	/
O=C(Nc1nc(-c2ccccc2)cs1)c1ccc2c(=O)n3c(nc2c1)CCCCC3	.	18	.	.	.	/	.
COC(=O)c1ccc(C(=O)Nc2ccc3nc(-c4cccnc4)[nH]c3c2)cc1	.	47	.	.	.	.	.
